Data: US10004701B2, “Methods and compositions for treating infection” (UNIVERSITY OF ROCHESTER, priority 2012, dated 2018)

Protein sequences, listed by entry. Tags and fused reporters are not part of them. Lines headed by an entry give the natural chain unless they say otherwise; changes in a name come on top.
UniProt P0A0K8: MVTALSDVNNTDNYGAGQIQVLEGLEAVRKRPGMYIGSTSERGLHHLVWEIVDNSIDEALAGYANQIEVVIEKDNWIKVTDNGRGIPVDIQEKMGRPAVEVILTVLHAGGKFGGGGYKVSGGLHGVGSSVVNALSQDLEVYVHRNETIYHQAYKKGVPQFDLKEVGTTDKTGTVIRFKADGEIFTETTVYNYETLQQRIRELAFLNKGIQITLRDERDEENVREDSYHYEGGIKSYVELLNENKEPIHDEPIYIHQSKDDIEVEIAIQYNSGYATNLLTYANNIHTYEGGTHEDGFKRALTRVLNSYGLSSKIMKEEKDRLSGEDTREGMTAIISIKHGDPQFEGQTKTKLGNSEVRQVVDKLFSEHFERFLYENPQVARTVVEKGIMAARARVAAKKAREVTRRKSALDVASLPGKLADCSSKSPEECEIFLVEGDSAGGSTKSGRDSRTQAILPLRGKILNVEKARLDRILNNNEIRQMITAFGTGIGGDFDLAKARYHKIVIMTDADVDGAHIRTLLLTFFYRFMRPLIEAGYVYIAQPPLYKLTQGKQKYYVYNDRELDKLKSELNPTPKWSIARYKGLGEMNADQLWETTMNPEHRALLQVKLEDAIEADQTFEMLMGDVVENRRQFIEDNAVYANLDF
UniProt P20831: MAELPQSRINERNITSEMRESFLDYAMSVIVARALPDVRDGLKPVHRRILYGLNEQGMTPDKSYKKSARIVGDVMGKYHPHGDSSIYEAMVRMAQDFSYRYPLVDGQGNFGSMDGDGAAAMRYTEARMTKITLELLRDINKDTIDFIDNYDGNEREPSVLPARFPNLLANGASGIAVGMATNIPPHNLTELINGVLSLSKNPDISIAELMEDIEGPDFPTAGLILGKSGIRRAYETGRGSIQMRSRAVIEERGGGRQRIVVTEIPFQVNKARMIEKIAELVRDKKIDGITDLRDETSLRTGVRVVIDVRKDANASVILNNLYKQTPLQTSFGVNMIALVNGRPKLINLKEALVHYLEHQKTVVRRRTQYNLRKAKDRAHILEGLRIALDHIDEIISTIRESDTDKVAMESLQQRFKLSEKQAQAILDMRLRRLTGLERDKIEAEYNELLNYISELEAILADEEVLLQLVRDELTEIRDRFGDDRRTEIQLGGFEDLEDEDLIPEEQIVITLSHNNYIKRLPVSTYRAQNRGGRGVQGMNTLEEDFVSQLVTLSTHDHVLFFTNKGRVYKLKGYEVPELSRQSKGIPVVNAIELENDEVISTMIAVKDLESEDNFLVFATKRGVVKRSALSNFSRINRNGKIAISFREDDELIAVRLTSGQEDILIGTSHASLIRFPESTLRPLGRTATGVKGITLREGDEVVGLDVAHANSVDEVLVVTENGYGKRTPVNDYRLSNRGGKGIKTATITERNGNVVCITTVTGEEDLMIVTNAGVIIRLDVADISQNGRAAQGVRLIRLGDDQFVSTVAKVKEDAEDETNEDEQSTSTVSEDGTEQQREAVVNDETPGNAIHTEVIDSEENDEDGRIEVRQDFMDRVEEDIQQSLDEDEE

Columns and labels:
[1] = biological target: S. aureus DNA gyrase (Staphylococcus aureus, UniProt P0A0K8+P20831); experiment: S. aureus DNA gyrase supercoiling assay (TopoGEN); conditions: 37° C. 30 min
[2] = system: A. baumannii strain 98-37-09; experiment: AK assay 384-well format, Prestwick library screening; conditions: for fold induction at 50 µM: Acinetobacter baumannii, 983709, 3 h, read-out: AK-based Prestwick Library Screening Results, A. baumannii (fold increase in extracellular AK activity)
[3] = system: K. pneumoniae; experiment: as above; conditions: for fold induction at 50 µM: Klebsiella pneumoniae, 3 h, read-out: AK-based Prestwick Library Screening Results, K. pneumoniae (fold increase in extracellular AK activity)
[4] = system: E. cloacae; experiment: as above; conditions: for fold induction at 50 µM: Enterobacter cloacae, 3 h, read-out: AK-based Prestwick Library Screening Results, E. cloacae (fold increase in extracellular AK activity)
[5] = system: E. faecium; experiment: as above; conditions: for fold induction at 50 µM: Enterococcus faecium, 3 h, read-out: AK-based Prestwick Library Screening Results, E. faecium (fold increase in extracellular AK activity)
[6] = system: S. aureus strain USA300-0114; experiment: as above; conditions: for fold induction at 50 µM: Staphylococcus aureus, USA300, 3 h, read-out: AK-based Prestwick Library Screening Results, S. aureus (fold increase in extracellular AK activity)
[7] = system: P. aeruginosa; experiment: as above; conditions: for fold induction at 50 µM: Pseudomonas aeruginosa, 3 h, read-out: AK-based Prestwick Library Screening Results, P. aeruginosa (fold increase in extracellular AK activity)
[8] = system: E. coli; experiment: as above; conditions: for fold induction at 50 µM: Escherichia coli, 3 h
[9] = read-out: AK-based Prestwick Library Screening Results, E. coli (fold increase in extracellular AK activity)

Compound	IC50 [1]	fold induction at 50 µM [2]	fold induction at 50 µM [3]	fold induction at 50 µM [4]	fold induction at 50 µM [5]	fold induction at 50 µM [6]	fold induction at 50 µM [7]	fold induction at 50 µM [8, 9]	other results
CC(C)(C)c1ccc(C(=O)CCCN2CCC(C(O)(c3ccccc3)c3ccccc3)CC2)cc1 [Compound 11, 1-(4-(tert-butyl)phenyl)-4-(4-(hydroxydiphenylmethyl)piperidin-1-yl)butan-1-one]	199 µM								
CC(C)(C)c1ccc(C(=O)CN2CCC(C(O)(c3ccccc3)c3ccccc3)CC2)cc1 [Compound 20, 1-(4-(tert-butyl)phenyl)-2-(4-(hydroxydiphenylmethyl)piperidin-1-yl)ethanone]	166 µM								
(−)-Quinpirole hydrochloride									AK-based Prestwick library screening result, A. baumannii (fold increase in extracellular AK activity) [2]: 1.0; AK-based Prestwick library screening result, K. pneumoniae (fold increase in extracellular AK activity) [3]: 1.0; AK-based Prestwick library screening result, E. cloacae (fold increase in extracellular AK activity) [4]: 1.7; AK-based Prestwick library screening result, E. faecium (fold increase in extracellular AK activity) [5]: 1.0; AK-based Prestwick library screening result, S. aureus (fold increase in extracellular AK activity) [6]: 1.2; AK-based Prestwick library screening result, P. aeruginosa (fold increase in extracellular AK activity) [7]: 0.9; AK-based Prestwick library screening result, E. coli (fold increase in extracellular AK activity) [8]: 1.1
C[C@@H]1C[C@H]2[C@@H]3C[C@H](F)C4=CC(=O)C=C[C@]4(C)[C@@]3(F)[C@@H](O)C[C@]2(C)[C@@]1(O)C(=O)CO [Flumethasone]		0.7	0.6	0.8	0.9	0.6	0.7	0.6	
O=C(O)C1CCCNC1 (racemic) [(±)-Nipecotic acid]		1.3	1.2	1.3	1	1.3	1	1.4	
COc1cc(NC(C)CCCN)c2ncccc2c1 (stereo not shown) [Primaquine diphosphate]								1.2	
CC(C)(C)c1ccc(C(N)CCCN2CCC(C(O)(c3ccccc3)c3ccccc3)CC2)cc1 (stereo not shown) [Compound 24, (1-(4-amino-4-(4-(tert-butyl)phenyl)butyl)piperidin-4-yl)diphenylmethanol]	> 1060 µM								
O=C(NCCNCC(O)COc1ccc(O)cc1)N1CCOCC1 (stereo not shown) [Xamoterol hemifumarate]								1.3	
CNCCC(Oc1ccccc1OC)c1ccccc1 (stereo not shown) [Nisoxetine hydrochloride]		0.8	0.7	0.9	1	0.7	0.9	0.9	
O=C(O)CCCC[C@@H]1SC[C@@H]2NC(=O)N[C@@H]21 [Biotin]									fold induction at 50 µM ([8]; read-out: AK-based Prestwick Library Screening Results, E. coli (increase in extracellular AK activity)): 0.6

Structures can show the parent of a compound that is named as a salt. Where two headings read alike, the source gives them in different places.
